Values quoted from earlier work, collected in patent publication US7138151B2, “Calcium-fortified acidic beverages” (Unilab Pharmatech, Ltd., priority 2002, dated 2006).

Settings: at 25° C.

calcium gluconate
solubility expressed as dissolved calcium: 0.35 % w/v
